The values that follow are results of earlier work, collected in US11224584B2, “Sleep apnea treatment” (The Regents of The University of Michigan, priority 2012, dated 2022).

On to “REBIF beta-interferon: subcutaneous recombinant interferon-beta-1a (Merck-Serono and Pfizer), disease-modifying drug used to treat MS”, for which the “Time it can be stored at room temperature” value is “up to 30 days”.
